Source: patent publication US7192924B2, “Corticotropin releasing factor 2 receptor agonists” (priority 2002, dated 2007)
Read-outs that look alike come from different tables or passages of the source.

Legend:
CRF1R = target: T1, CRF1R (Homo sapiens, UniProt P34998); assay: CRF1R agonist activity (EC50, Emax), called comparative CRF binding; format: cell-based
T1 sequence (P34998 24-415): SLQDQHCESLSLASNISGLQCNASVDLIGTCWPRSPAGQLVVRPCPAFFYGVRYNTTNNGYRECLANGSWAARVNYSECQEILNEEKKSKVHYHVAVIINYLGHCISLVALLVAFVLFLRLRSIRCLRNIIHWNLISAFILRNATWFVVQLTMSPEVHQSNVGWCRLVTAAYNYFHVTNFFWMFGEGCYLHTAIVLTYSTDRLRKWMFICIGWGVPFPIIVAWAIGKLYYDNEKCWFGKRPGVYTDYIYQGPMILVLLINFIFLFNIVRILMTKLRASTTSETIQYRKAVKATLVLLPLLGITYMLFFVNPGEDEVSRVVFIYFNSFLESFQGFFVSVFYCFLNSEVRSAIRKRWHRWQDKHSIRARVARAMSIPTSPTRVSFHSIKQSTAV
Method in brief: (§1)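 cAMP read-out: CRE-linked reporter (e.g. luciferase, CAT, GFP) or lysate cAMP in CRF1R- or CRF2R-expressing cells after peptide exposure; vehicle control comparison. Signal from any non-target CRFR subtracted.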

CRF2R = target: T2, CRF2R (Homo sapiens, UniProt Q13324); assay: CRF2R agonist activity (EC50, Emax), called comparative CRF binding; format: cell-based
T2 sequence (Q13324 1-411): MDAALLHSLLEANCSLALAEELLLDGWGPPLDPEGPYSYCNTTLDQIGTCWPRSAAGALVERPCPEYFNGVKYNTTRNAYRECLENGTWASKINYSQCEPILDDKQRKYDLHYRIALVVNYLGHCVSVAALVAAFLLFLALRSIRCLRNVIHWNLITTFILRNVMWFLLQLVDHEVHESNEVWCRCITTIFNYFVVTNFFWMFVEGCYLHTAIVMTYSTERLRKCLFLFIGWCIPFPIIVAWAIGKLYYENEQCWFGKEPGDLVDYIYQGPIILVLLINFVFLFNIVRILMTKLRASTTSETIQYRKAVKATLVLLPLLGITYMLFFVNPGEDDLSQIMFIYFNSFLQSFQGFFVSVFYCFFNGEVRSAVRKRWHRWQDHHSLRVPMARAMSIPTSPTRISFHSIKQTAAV
Method in brief: as §1

CC[C@H](C)[C@H](NC(=O)[C@H](CCCNC(=N)N)NC(=O)[C@H](C)NC(=O)[C@H](CC(C)C)NC(=O)[C@H](CC(C)C)NC(=O)[C@H](CCCNC(=N)N)NC(=O)[C@H](C)NC(=O)[C@H](CC(N)=O)NC(=O)[C@H](CC(N)=O)NC(=O)[C@H](C)NC(=O)[C@H](C)NC(=O)[C@H](CCC(N)=O)NC(=O)[C@H](CCC(N)=O)NC(=O)[C@H](CCCCN)NC(=O)[C@H](CCC(=O)O)NC(=O)[C@H](CCCCN)NC(=O)[C@H](CCC(=O)O)NC(=O)[C@H](CCC(N)=O)NC(=O)[C@H](CCCCN)NC(=O)[C@H](CCC(=O)O)NC(=O)[C@@H](NC(=O)[C@H](CCC(=O)O)NC(=O)[C@@H](NC(=O)[C@@H](NC(=O)[C@H](CCCCN)NC(=O)[C@H](CCCNC(=N)N)NC(=O)[C@H](CC(C)C)NC(=O)[C@H](CC(C)C)NC(=O)[C@H](CCC(N)=O)NC(=O)[C@H](Cc1ccccc1)NC(=O)[C@@H]1CCCN1C(=O)[C@H](CC(C)C)NC(=O)[C@H](CC(=O)O)NC(=O)[C@@H](NC(=O)[C@H](CO)NC(=O)[C@@H](NC(=O)[C@@H]1CCCN1C(=O)[C@@H]1CCCN1C(=O)CNC(=O)[C@@H]1CCC(=O)N1)[C@@H](C)CC)[C@@H](C)CC)C(C)C)[C@@H](C)CC)[C@@H](C)CC)C(N)=O [compound 279]
EC50 (CRF1R): ≥ 1000 nM | EC50 (CRF2R): 13.1 nM

CC[C@H](C)[C@H](NC(=O)[C@H](CCCNC(=N)N)NC(=O)[C@H](C)NC(=O)[C@H](CC(C)C)NC(=O)[C@H](CC(C)C)NC(=O)[C@H](CCCNC(=N)N)NC(=O)[C@H](C)NC(=O)[C@H](CC(N)=O)NC(=O)[C@H](CC(N)=O)NC(=O)[C@H](C)NC(=O)[C@H](C)NC(=O)[C@H](CCC(N)=O)NC(=O)[C@H](CCC(N)=O)NC(=O)[C@H](CCCCN)NC(=O)[C@H](CCC(=O)O)NC(=O)[C@H](CCCCN)NC(=O)[C@H](CCC(=O)O)NC(=O)[C@H](CCC(N)=O)NC(=O)[C@H](CCCCN)NC(=O)[C@H](CCC(=O)O)NC(=O)[C@@H](NC(=O)[C@H](CCC(=O)O)NC(=O)[C@@H](NC(=O)[C@H](CCSC)NC(=O)[C@H](CCCCN)NC(=O)[C@H](CCCNC(=N)N)NC(=O)[C@H](CC(C)C)NC(=O)[C@H](CC(C)C)NC(=O)[C@H](Cc1ccccc1)NC(=O)[C@@H](NC(=O)[C@@H]1CCCN1C(=O)[C@H](CC(C)C)NC(=O)[C@H](CC(=O)O)NC(=O)[C@@H](NC(=O)[C@H](CO)NC(=O)[C@@H](NC(=O)[C@@H]1CCCN1C(=O)[C@@H]1CCCN1C(=O)CNC(=O)[C@@H]1CCC(=O)N1)[C@@H](C)CC)[C@@H](C)CC)[C@@H](C)CC)[C@@H](C)CC)[C@@H](C)CC)C(N)=O [compound 282]
EC50 (CRF1R): ≥ 1000 nM | EC50 (CRF2R): 25.8 nM

CC[C@H](C)[C@H](NC(=O)[C@H](CCC(=O)O)NC(=O)[C@@H](NC(=O)[C@H](CCSC)NC(=O)[C@H](CCCCN)NC(=O)[C@H](CCCNC(=N)N)NC(=O)[C@H](CC(C)C)NC(=O)[C@H](CC(C)C)NC(=O)[C@H](CCC(N)=O)NC(=O)[C@H](Cc1ccc(O)cc1)NC(=O)[C@@H]1CCCN1C(=O)[C@H](CC(C)C)NC(=O)[C@H](CC(=O)O)NC(=O)[C@@H](NC(=O)[C@H](CO)NC(=O)[C@@H](NC(=O)[C@@H]1CCCN1C(=O)[C@@H]1CCCN1C(=O)CNC(=O)[C@@H]1CCC(=O)N1)[C@@H](C)CC)[C@@H](C)CC)[C@@H](C)CC)C(=O)N[C@@H](CCC(=O)O)C(=O)N[C@@H](CCCCN)C(=O)N[C@@H](CCC(N)=O)C(=O)N[C@@H](CCC(=O)O)C(=O)N[C@@H](CCCCN)C(=O)N[C@@H](CCC(=O)O)C(=O)N[C@@H](CCCCN)C(=O)N[C@@H](CCC(N)=O)C(=O)N[C@@H](CCC(N)=O)C(=O)N[C@@H](C)C(=O)N[C@@H](C)C(=O)N[C@@H](CC(N)=O)C(=O)N[C@@H](CC(N)=O)C(=O)N[C@@H](C)C(=O)N[C@@H](CCCNC(=N)N)C(=O)N[C@@H](CC(C)C)C(=O)N[C@@H](CC(C)C)C(=O)N[C@@H](C)C(=O)N[C@@H](CCCNC(=N)N)C(N)=O [compound 287]
EC50 (CRF1R; read-out: CRF1R EC50): ≥ 1000 nM | EC50 (CRF2R; read-out: CRF2R EC50): 11.3 nM

CC[C@H](C)[C@H](NC(=O)[C@@H](NC(=O)[C@H](CC(=O)O)NC(=O)[C@H](CC(C)C)NC(=O)[C@H](CC(C)C)NC(=O)[C@H](CC(C)C)NC(=O)[C@H](CCCNC(=N)N)NC(=O)[C@H](CC(N)=O)NC(=O)[C@H](CC(N)=O)NC(=O)[C@H](C)NC(=O)[C@H](C)NC(=O)[C@H](CCC(N)=O)NC(=O)[C@H](CCC(N)=O)NC(=O)[C@H](CCCCN)NC(=O)[C@H](CCC(=O)O)NC(=O)[C@H](CCCCN)NC(=O)[C@H](CCC(=O)O)NC(=O)[C@H](CCC(N)=O)NC(=O)[C@H](CCCCN)NC(=O)[C@H](CCC(=O)O)NC(=O)[C@@H](NC(=O)[C@H](CCC(=O)O)NC(=O)[C@@H](NC(=O)[C@@H](NC(=O)[C@H](CCCCN)NC(=O)[C@H](CCCNC(=N)N)NC(=O)[C@H](CC(C)C)NC(=O)[C@H](CC(C)C)NC(=O)[C@@H](NC(=O)[C@H](CCC(N)=O)NC(=O)[C@@H]1CCCN1C(=O)[C@H](CC(C)C)NC(=O)[C@H](CC(=O)O)NC(=O)[C@@H](NC(=O)[C@H](CO)NC(=O)[C@@H](NC(=O)[C@@H]1CCCN1C(=O)[C@@H]1CCCN1C(=O)CNC(=O)[C@@H]1CCC(=O)N1)[C@@H](C)CC)[C@@H](C)CC)[C@@H](C)CC)C(C)C)[C@@H](C)CC)[C@@H](C)CC)[C@@H](C)O)C(N)=O [compound 293]
EC50 (CRF1R): 520 nM | EC50 (CRF2R): 40.3 nM

CC[C@H](C)[C@H](NC(=O)[C@H](CCCNC(=N)N)NC(=O)[C@H](C)NC(=O)[C@H](CC(C)C)NC(=O)[C@H](CC(C)C)NC(=O)[C@H](CCCNC(=N)N)NC(=O)[C@H](C)NC(=O)[C@H](CC(N)=O)NC(=O)[C@H](CC(N)=O)NC(=O)[C@H](C)NC(=O)[C@H](C)NC(=O)[C@H](CCC(N)=O)NC(=O)[C@H](CCC(N)=O)NC(=O)[C@H](CCCCN)NC(=O)[C@H](CCC(=O)O)NC(=O)[C@H](CCCCN)NC(=O)[C@H](CCC(=O)O)NC(=O)[C@H](CCC(N)=O)NC(=O)[C@H](CCCCN)NC(=O)[C@H](CCC(=O)O)NC(=O)[C@@H](NC(=O)[C@H](CCC(=O)O)NC(=O)[C@@H](NC(=O)[C@@H](NC(=O)[C@H](CCCCN)NC(=O)[C@H](CCCNC(=N)N)NC(=O)[C@H](CC(C)C)NC(=O)[C@H](CC(C)C)NC(=O)[C@@H](NC(=O)[C@@H](NC(=O)[C@@H]1CCCN1C(=O)[C@H](CC(C)C)NC(=O)[C@H](CC(=O)O)NC(=O)[C@@H](NC(=O)[C@H](CO)NC(=O)[C@@H](NC(=O)[C@@H]1CCCN1C(=O)[C@@H]1CCCN1C(=O)CNC(=O)[C@@H]1CCC(=O)N1)[C@@H](C)CC)[C@@H](C)CC)[C@@H](C)CC)[C@@H](C)CC)C(C)C)[C@@H](C)CC)[C@@H](C)CC)C(N)=O [compound 295]
EC50 (CRF1R; read-out: CRF1R EC50): ≥ 1000 nM | EC50 (CRF2R; read-out: CRF2R EC50): 55 nM

CC[C@H](C)[C@H](NC(=O)[C@@H](NC(=O)[C@H](C)NC(=O)[C@H](CC(C)C)NC(=O)[C@H](CC(C)C)NC(=O)[C@H](CC(C)C)NC(=O)[C@H](C)NC(=O)[C@H](CC(N)=O)NC(=O)[C@H](CC(N)=O)NC(=O)[C@H](C)NC(=O)[C@H](C)NC(=O)[C@H](CCC(N)=O)NC(=O)[C@H](CCC(N)=O)NC(=O)[C@H](CCCCN)NC(=O)[C@H](CCC(=O)O)NC(=O)[C@H](CCCCN)NC(=O)[C@H](CCC(=O)O)NC(=O)[C@H](CCC(N)=O)NC(=O)[C@H](CCCCN)NC(=O)[C@H](CCC(=O)O)NC(=O)[C@@H](NC(=O)[C@H](CCC(=O)O)NC(=O)[C@@H](NC(=O)[C@@H](NC(=O)[C@H](CCCCN)NC(=O)[C@H](CCCNC(=N)N)NC(=O)[C@H](CC(C)C)NC(=O)[C@H](CC(C)C)NC(=O)[C@@H](NC(=O)[C@H](CCC(N)=O)NC(=O)[C@@H]1CCCN1C(=O)[C@H](CC(C)C)NC(=O)[C@H](CC(=O)O)NC(=O)[C@@H](NC(=O)[C@H](CO)NC(=O)[C@@H](NC(=O)[C@@H]1CCCN1C(=O)[C@@H]1CCCN1C(=O)CNC(=O)[C@@H]1CCC(=O)N1)[C@@H](C)CC)[C@@H](C)CC)[C@@H](C)CC)C(C)C)[C@@H](C)CC)[C@@H](C)CC)[C@@H](C)O)C(N)=O [compound 299]
EC50 (CRF1R): ≥ 1000 nM | EC50 (CRF2R): 46.4 nM

CC[C@H](C)[C@H](NC(=O)[C@@H](NC(=O)[C@H](CC(=O)O)NC(=O)[C@H](CC(C)C)NC(=O)[C@H](CC(C)C)NC(=O)[C@H](CC(C)C)NC(=O)[C@H](CCCNC(=N)N)NC(=O)[C@H](CC(N)=O)NC(=O)[C@H](CC(N)=O)NC(=O)[C@H](C)NC(=O)[C@H](C)NC(=O)[C@H](CCC(N)=O)NC(=O)[C@H](CCC(N)=O)NC(=O)[C@H](CCCCN)NC(=O)[C@H](CCC(=O)O)NC(=O)[C@H](CCCCN)NC(=O)[C@H](CCC(=O)O)NC(=O)[C@H](CCC(N)=O)NC(=O)[C@H](CCCCN)NC(=O)[C@H](CCC(=O)O)NC(=O)[C@@H](NC(=O)[C@H](CCC(=O)O)NC(=O)[C@@H](NC(=O)[C@H](CCSC)NC(=O)[C@H](CCCCN)NC(=O)[C@H](CCCNC(=N)N)NC(=O)[C@H](CC(C)C)NC(=O)[C@H](CC(C)C)NC(=O)[C@H](C)NC(=O)[C@H](C)NC(=O)[C@@H]1CCCN1C(=O)[C@H](CC(C)C)NC(=O)[C@H](CC(=O)O)NC(=O)[C@@H](NC(=O)[C@H](CO)NC(=O)[C@@H](NC(=O)[C@@H]1CCCN1C(=O)[C@@H]1CCCN1C(=O)CNC(=O)[C@@H]1CCC(=O)N1)[C@@H](C)CC)[C@@H](C)CC)[C@@H](C)CC)[C@@H](C)CC)[C@@H](C)O)C(N)=O [compound 303]
EC50 (CRF1R): 582 nM | EC50 (CRF2R): 27.3 nM
